Assay results as given in paper PMC4216111, “The Bile Acid-Sensitive Ion Channel (BASIC) Is Activated by Alterations of Its Membrane Environment” (PLoS ONE, 2014).

Amino acid sequences for entries named in this document (tags omitted). A change or cut given only in a name is not applied to a line headed by its entry.
UniProt Q9R0W5: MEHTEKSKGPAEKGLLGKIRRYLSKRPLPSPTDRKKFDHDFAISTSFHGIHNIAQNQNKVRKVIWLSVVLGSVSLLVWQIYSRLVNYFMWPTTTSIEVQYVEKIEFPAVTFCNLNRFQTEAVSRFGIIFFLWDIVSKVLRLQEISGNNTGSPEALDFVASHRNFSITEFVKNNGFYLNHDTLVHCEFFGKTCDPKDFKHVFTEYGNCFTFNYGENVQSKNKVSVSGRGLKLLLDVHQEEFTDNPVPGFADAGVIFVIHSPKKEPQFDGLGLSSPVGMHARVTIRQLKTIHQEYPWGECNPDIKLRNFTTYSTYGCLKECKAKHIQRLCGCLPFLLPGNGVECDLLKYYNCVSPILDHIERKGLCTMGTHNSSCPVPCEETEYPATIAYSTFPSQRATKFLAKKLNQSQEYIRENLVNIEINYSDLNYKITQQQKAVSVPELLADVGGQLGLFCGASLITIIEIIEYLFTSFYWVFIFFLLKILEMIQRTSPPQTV

What was measured:
non-injected oocytes = assay: Two-electrode voltage clamp, non-injected control oocytes
mouse BASIC = assay: Two-electrode voltage clamp, oocytes expressing mouse BASIC; settings: 2 mM UDCA, 500 µM CPZ, 10 mM TNP, 100 µM Triton-X 100, 500 µM NL, 400 µM SDS; n = 8
rat BASIC = rat BASIC (Rattus norvegicus, UniProt Q9R0W5); assay: Two-electrode voltage clamp, Xenopus laevis oocytes expressing rat BASIC; settings: 10 mM TNP co-applied with 2 mM UDCA, n = 10

2,3,6 Trinitrophenol
response of non-injected control oocytes (non-injected oocytes): did not respond | activity of mouse BASIC, normalized to the amiloride-sensitive current (mouse BASIC): 0.6 fold | current amplitude (rat BASIC): 12.1±2.5 µA
